Experimental data: patent US20230150966A1, “ISOTOPICALLY ENRICHED 3,4-METHYLENEDIOXY-N-[…] (MDE) AND STEREOISOMERS THEREOF” (published 2023)

Test system: Sprague-Dawley rats
Experiment: Rat elevated zero maze model of anxiety
Settings: positive control 6 mg/kg ip, male SD rats

For Chlordiazepoxide, the “frequency of SAPs” value was “significant reduction in SAPs” and the “percentage of time spent in the open arms” value was “significant increase in time in the open arms for the R MDE group and S MDE group only”.
